This is a selection; strong and weak results do not stand in their true shares. Potency and affinity values are given separately. Some results for these compounds are left out of this collection, so the calls shown say nothing about other tests. Active and inactive are the calls of the source.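 The calls were made as follows: active = inhibition over 29.93%, a cutoff 3 SD above the screen mean, later confirmed by dose response; inconclusive = inhibition over 29.93% but no dose response follow-up; inactive = inhibition at most 29.93% or unconfirmed.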
Assay: inhibitors of PhoP regulon expression, primary screen, Salmonella Typhimurium, GFP reporter (AID 1863);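 also: 0% = low Mg2+ inducing control and 100% = high Mg2+ repressing control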
Settings: S. Typhimurium PhoP-regulated promoter GFP reporter, 4 h; at 50 µM; stronger effect = higher value

Row | Structure (SMILES) | inhibition
1 | CN(C)C1CCCC1OC(=O)C(O)(c1ccccc1)c1ccccc1 (centres undefined) | inactive: -2.99%
2 | CN(C)c1ccc(C(=O)NCC2(N(C)C)CCCCC2)cc1 | inactive: 2.18%
3 | Cc1ccccc1C(=O)NCC1(N2CCCCC2)CCCCC1 | inactive: 3.7%
4 | O=C(NCC1(N2CCCCC2)CCCCC1)c1cccc(Br)c1 | inactive: -0.4%
5 | Cc1cc(C(=O)NCC2(N3CCCCC3)CCCCC2)ccc1[N+](=O)[O-] | inactive: 5%
6 | CCN1CCCC(OC(=O)C2(O)c3ccccc3C=Cc3ccccc32)C1 (centres undefined) | inactive: -4.11%
7 | COc1ccc(C(=O)NCC2(N(C)C)CCCCC2)cc1 | inactive: 0.31%
8 | O=C(NCC1(N2CCCCC2)CCCCC1)c1cc(F)c(F)cc1Cl | inactive: 0.79%
9 | C=CCN1CCN(CCOC(=O)C(O)(c2ccccc2)c2ccccc2)CC1 | inactive: -2.32%
10 | CN1[C@@H]2CC[C@H]1CC(OC(=O)C(O)(c1ccccc1)c1ccccc1)C2 (some centres undefined) | inactive: -2.41%
11 | O=C(NCC1(N2CCCCC2)CCCCC1)c1cc([N+](=O)[O-])ccc1Cl | inactive: -2.75%
12 | Cc1ccc(C(=O)NCC2(N3CCCCC3)CCCCC2)cc1 | inactive: -2.25%
13 | CC(C)N1C(=O)CC2(CCN(CCOC(=O)C(O)(c3ccccc3)c3ccccc3)CC2)C1=O | inactive: -7.53%
14 | COc1cc(SC)ccc1C(=O)NCC1(N(C)C)CCCCC1 | inactive: 6.99%
15 | CCN(CC)CC(C)C(C)OC(=O)C(O)(c1ccccc1)c1ccccc1 (centres undefined) | inactive: -13.2%
16 | O=C(OC1CN2CCC1CC2)C(CO)(c1ccccc1)c1ccccc1 (centres undefined) | inactive: -0.98%
17 | CN(C)c1cccc(C(=O)NCC2(N(C)C)CCCCC2)c1 | inactive: -6.53%
18 | CC(C)Oc1ccc(C(=O)NCC2(N(C)C)CCCCC2)cc1 | inactive: -0.71%
19 | COc1ccc(Br)c(C(=O)NCC2(N3CCCCC3)CCCCC2)c1 | inactive: -8.7%
20 | COc1cc(C(=O)NCC2(N(C)C)CCCCC2)c([N+](=O)[O-])cc1OC | inactive: 7.41%
21 | CN(C)C1(CNC(=O)c2ccc(Br)cc2)CCCCC1 | inactive: -4.24%
22 | O=C(NCC1(N2CCCCC2)CCCCC1)c1cccc(Cl)c1 | inactive: -0.37%
23 | COc1ccc(Cl)cc1C(=O)NCC1(N(C)C)CCCCC1 | inactive: 5.61%
24 | COc1cccc(C(=O)NCC2(N3CCCCC3)CCCCC2)c1 | inactive: -1.69%

Source: PubChem BioAssay AID1863 (Southern Research Specialized Biocontainment Screening …, 2009)
